# Reference: PubChem BioAssay AID652067 (The Scripps Research Institute Molecular Screening Center, 2013)
# The entries are a selection whose mix differs from that of the whole data set. Activity calls are given as the source filed them.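 Rule for the calls: active = activation above the mean of all tested compounds plus 3 SD (cut at about 5.5% in these data); inactive = the rest.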
# Tested on: DAF-12 nuclear receptor (Haemonchus contortus)
# Assay: hcDAF-12 driven luciferase reporter activation – cell-based, luminescence, HEK293, lit1-tk-luc reporter, primary screen (AID 652067);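 note: 100% = response to 3 µM Δ7-dafachronic acid high control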
# Settings: HEK293 hcDAF-12 lit1-tk-luc reporter, at 6.8 µM, hits give high values, 0% DMSO, 100% Δ7-dafachronic acid
row,SMILES,activation
1,Clc1ccc(Cl)c(NC2=NCC(CBr)S2)c1 (configuration not stated),inactive: -0.82%
2,CN1CCCC(OC(=O)C(c2ccccc2)c2ccccc2)C1 (configuration not stated),inactive: 1.34%
3,COc1ccccc1OP(=O)(Nc1ccc(C)cn1)Oc1ccccc1OC,inactive: 0.61%
4,Cc1ccc(OP(=O)(Nc2nccs2)Oc2ccc(C)cc2)cc1,inactive: -1.73%
5,CN(C(=O)Cc1ccc(Cl)c(Cl)c1)[C@H]1CCCC[C@H]1N1CCCC1,inactive: -1.25%
6,Cc1ccc(N/C(=N/P(=O)(N2CCOCC2)N2CCOCC2)N2CCOCC2)cc1,inactive: 0.87%
7,NC(=O)c1cc([N+](=O)[O-])cc([N+](=O)[O-])c1N,inactive: -0.75%
8,Oc1ccccc1CNc1ccccn1,inactive: -1.15%
9,O=C(NC(Sc1ccncn1)C(Cl)(Cl)Cl)c1ccccc1 (configuration not stated),inactive: -0.44%
10,CC(C)CC(=O)NC(Sc1ccc(Cl)cc1)C(Cl)(Cl)Cl (configuration not stated),inactive: 1.19%
11,Nc1cc(N)c2nonc2c1[N+](=O)[O-],inactive: 0.94%
12,CCn1c(=O)n(C2CCN(CC3CCCCCCC3)C[C@H]2CO)c2ccccc21 (some centres not stated),inactive: 0%
13,CCOP(=O)(Nc1ccccc1)OCC,inactive: -1.96%
14,Cc1cc(SC(NC(=O)c2ccc(F)cc2)C(Cl)(Cl)Cl)ncn1 (configuration not stated),inactive: -0.23%
15,Cc1ccc(NP(=O)(Oc2ccccc2F)Oc2ccccc2F)nc1,inactive: -0.27%
16,CN(C(=O)Cc1ccc(Cl)c(Cl)c1)[C@H]1CCCC[C@@H]1N1CCCC1,inactive: -0.67%
17,CN(C)P(=O)(N(C)C)n1c(Nc2ccccc2)nnc1-c1ccccc1,inactive: 0.57%
18,O=P(Nc1nc2ccc(Cl)cc2s1)(c1ccccc1)c1ccccc1,inactive: -0.21%
19,O=C(O)c1ccccc1[As](=O)(O)O,inactive: 2.28%
20,CC(=O)Nc1ccc([As](=O)(O)O)cc1,inactive: 2.6%
21,CCCC1OP(N)(=O)OCC1CC (configuration not stated),inactive: 1.17%
22,Nc1cccc2ccc([As](=O)(O)O)cc12,inactive: 1.6%
23,CN(C(=O)Cc1ccccc1)C1CC[C@@]2(CCCO2)C[C@@H]1N1CCCC1 (some centres not stated),inactive: 0.2%
24,CCN(N=Nc1nonc1N)c1nonc1N,inactive: -3.24%
25,O=C(Nc1cc([As](=O)(O)O)ccc1O)c1ccccc1,inactive: -0.56%
26,O=P1(N(CCCl)CCCl)OCCCS1 (configuration not stated),inactive: 0.56%

row,SMILES,activation
1,O=C(O)CNc1ccc([As](=O)(O)O)cc1,inactive: -1.31%
2,O=[N+]([O-])c1cccc(NC2=NCC(CBr)S2)c1 (configuration not stated),inactive: -0.56%
3,COC(=O)C1(C)COP(=O)(Nc2ccccc2)OC1 (configuration not stated),inactive: -0.5%
4,O=[N+]([O-])c1ncn(CCn2ncnc2[N+](=O)[O-])n1,inactive: -1.05%
5,CC(C)(C)C(=O)NC(Sc1ccncn1)C(Cl)(Cl)Cl (configuration not stated),inactive: -1.63%
6,Cc1ccc(NP(=O)(Oc2ccccc2)Oc2ccccc2)nc1,inactive: -1.63%
7,CCc1nc2c(n1)c1c(non1O)c1c2no[n+]1[O-],inactive: -1.33%
8,O=[N+]([O-])c1cc([N+](=O)[O-])c(CCNc2ccccc2)c([N+](=O)[O-])c1,inactive: 1.03%
9,O=[N+]([O-])c1cccc2n[nH]nc12,inactive: -0.91%
10,CC(=O)N1C2C3N(C(C)=O)C1C1N(C(C)=O)C(C(N1C(C)=O)N3C(C)=O)N2C(C)=O,inactive: -0.23%
11,COc1ccc(C2=NCC(CBr)S2)cc1 (configuration not stated),inactive: -0.49%
12,c1cc(-c2nn[nH]n2)ccc1-c1nn[nH]n1,inactive: 1.49%
13,CC1CCN(C(=O)Oc2c(Cl)cc(Cl)c3cccnc23)CC1,inactive: -2.33%
14,CC(C)=N/N=C(\N)N[N+](=O)[O-],inactive: -1.14%
15,CC(C)c1nc(Nc2ccccc2)n(P(=O)(N(C)C)N(C)C)n1,inactive: -1%
16,CN(C)C(=O)OCCc1n(C)cc[n+]1C,inactive: -0.32%
17,CCN(/C(=N/P(=O)(N1CCOCC1)N1CCOCC1)N1CCOCC1)c1ccc(OC)cc1,active: 6.32%
18,Nc1ccc([As](=O)(O)c2ccc(N)cc2)cc1,inactive: -0.99%
19,C[N+]1=C2C=CC=CC=C2SC12C([N+](=O)[O-])=CC([N+](=O)[O-])=C[C-]2[N+](=O)[O-] (configuration not stated),inactive: -9.07%
20,c1nnnn1CCn1cnnn1,inactive: -1.73%
21,CC(C)C(=O)NC(Sc1ccccc1)C(Cl)(Cl)Cl (configuration not stated),inactive: -0.09%
22,O=P(Nc1nccs1)(c1ccccc1)c1ccccc1,inactive: -1.19%
23,O=P(Nc1nc2ccccc2s1)(c1ccccc1)c1ccccc1,inactive: 3.85%
24,C[C@H]1OP(=O)(Oc2ccccc2)[C@H](O)[C@H](O)[C@H]1N=[N+]=[N-] (some centres not stated),inactive: -0.39%
25,O=P(Nc1ccccn1)(c1ccc(Br)cc1)c1ccc(Br)cc1,inactive: -0.51%
26,CN(C)C1(CNC(=O)c2ccc(Cl)c(S(N)(=O)=O)c2)CCCCC1,inactive: -0.73%

row,SMILES,activation
1,Nc1ccc(CCCCOc2ccccc2)cc1,inactive: 1.33%
2,COc1ccc(N)c([N+](=O)[O-])c1[N+](=O)[O-],inactive: 0.04%
3,O=C(OC1CN2CCC1CC2)c1cccc(Cl)c1 (configuration not stated),inactive: 0.14%
4,C/C(N)=N\P(=O)(OCc1ccccc1)OCc1ccccc1,inactive: -0.99%
5,Nc1ccc([As](=O)(O)c2ccc([N+](=O)[O-])cc2)cc1,inactive: -1.68%
6,C(Cc1nn[nH]n1)Cc1nn[nH]n1,inactive: 0.38%
7,O=[As](O)(c1ccccc1)c1ccc(O)cc1,inactive: -1.01%
8,CC(=O)NC(SC(=S)N(C)C)C(Cl)(Cl)Cl (configuration not stated),inactive: -1.4%
9,O=[N+]([O-])c1ncn(CCn2cnc([N+](=O)[O-])n2)n1,inactive: -0.29%
10,O=P1(N(CCCl)CCCl)OCCC2CCCCN21 (configuration not stated),inactive: 0.29%
11,c1ccc(-c2nn[nH]n2)c(-c2nn[nH]n2)c1,inactive: 0.23%
12,Cc1ccc(NP(=O)(Oc2cccc(C)c2)Oc2cccc(C)c2)nc1,inactive: 1.34%
13,CCNC(=S)/N=C(\N)N[N+](=O)[O-],inactive: 0.79%
14,O=C(NC1CCS(=O)(=O)C1)NP(=S)(Oc1ccccc1)Oc1ccccc1 (configuration not stated),inactive: -1.07%
15,Cc1ccccc1OP(=O)(Nc1ccccn1)Oc1ccccc1C,inactive: -0.95%
16,CC(NC(=O)COC(=O)C(O)(c1ccccc1)c1ccccc1)c1ccccc1 (configuration not stated),inactive: -1.34%
17,CN(C)C(=O)Oc1noc2ccccc12,inactive: -1.54%
18,O=c1c2cc([N+](=O)[O-])ccc2[nH]c2c([N+](=O)[O-])cc([N+](=O)[O-])cc12,inactive: -1%
19,O=C(OC1CN2CCC1CC2)c1ccccc1 (configuration not stated),inactive: -0.5%
20,CCC(=O)N1C2C3N(C(=O)CC)C1C1N(C(=O)CC)C(C(N1C(=O)CC)N3C(=O)CC)N2C(=O)CC,inactive: -0.9%
21,COC(=O)c1cc2c(s1)N=C(c1ccccc1)N(C)P2(=O)N1CCOCC1 (configuration not stated),inactive: -0.15%
22,CC(=O)NC(SC(=S)N(CC(C)C)CC(C)C)C(Cl)(Cl)Cl (configuration not stated),inactive: 0.88%
23,Cc1ccc(OP(=O)(Nc2ccccn2)Oc2ccc(C)cc2)cc1,inactive: 1.82%
24,CC(C)(C)C(=O)NC(Sc1ccccc1)C(Cl)(Cl)Cl (configuration not stated),inactive: 0.29%
25,CCc1cc(O)c([N+](=O)[O-])c(C)c1[N+](=O)[O-],inactive: 0.8%
26,O=P1(Nc2nc3ccc(Cl)cc3s2)COc2ccccc2O1 (configuration not stated),inactive: -0.44%

row,SMILES,activation
1,CCOc1ccc(C2=NCC(CBr)S2)cc1 (configuration not stated),inactive: 1.14%
2,CC(=O)Nc1ccc([As](=O)(O)O)c(O)c1,inactive: -0.86%
3,CC(=O)Nc1ccc(Oc2c([N+](=O)[O-])cc([N+](=O)[O-])cc2[N+](=O)[O-])cc1,inactive: 1.15%
4,Cc1ccccc1CN(C)C(=O)COC(=O)C(O)(c1ccccc1)c1ccccc1,inactive: -1.98%
5,C[C@@H]1C=CCP(=O)(Oc2ccccc2)O1 (some centres not stated),inactive: -2.51%
6,C[C@H]1OP(=O)(Oc2ccccc2)C[C@@H]2O[C@@H]21 (some centres not stated),inactive: -0.1%
7,N#C/C(=C\c1ccc(N(CCBr)CCBr)cc1)C(N)=O,inactive: 0.28%
8,CC(=O)c1ccc(N2CC2c2ccncc2)cc1 (configuration not stated),inactive: -1.42%
9,COC(=O)C1(C)COP(=O)(NCc2ccccc2)OC1 (configuration not stated),inactive: -1.2%
10,O=[As](O)(c1cccc(O)c1)c1cccc(O)c1,inactive: -1.49%
11,Cc1cccc(OCC(=O)OC2CN3CCC2CC3)c1 (configuration not stated),inactive: -0.57%
12,O=C(OC1CN2CCC1CC2)c1ccc(Cl)cc1 (configuration not stated),inactive: -0.7%
13,COc1cc(C(=O)NCC2(N3CCOCC3)CCCCC2)cc(Cl)c1OC(C)C,inactive: 3.53%
14,O=[As](O)(O)c1cccnc1,inactive: -0.04%
15,CS(=O)(=O)c1ccc(Cl)c(NC(=O)COC(=O)C(O)(c2ccccc2)c2ccccc2)c1,inactive: 1.39%
16,COc1cc(C2NCCC3(OCCO3)C2(C)C)cc(OC)c1OC (configuration not stated),inactive: 1.87%
17,CCOP(=O)(Nc1cccc2ccccc12)OCC,inactive: -2.11%
18,Cc1ccc(NCCc2c([N+](=O)[O-])cc([N+](=O)[O-])cc2[N+](=O)[O-])cc1,inactive: -2.92%
19,Nc1cccc2c([As](=O)(O)O)cccc12,inactive: 0.02%
20,CCCOP(=S)(Nc1nc(N)cc(=O)[nH]1)OCCC,inactive: 0.41%
21,Nc1ccccc1[As](=O)(O)c1ccccc1,inactive: -1.39%
22,O=C(O)COc1ccc([As](=O)(O)O)cc1[N+](=O)[O-],inactive: -2.26%
23,CCOP1(=S)c2c(C)nn(CCC#N)c2N=C(c2ccccc2F)N1C (configuration not stated),inactive: -1.35%
24,O=P(Nc1nccs1)(Oc1ccccc1)Oc1ccccc1,inactive: 0.9%
